Biological target: T1, Bromodomain and PHD finger-containing protein 3 (Homo sapiens, UniProt Q9ULD4)
T1 sequence (Q9ULD4 whole entry): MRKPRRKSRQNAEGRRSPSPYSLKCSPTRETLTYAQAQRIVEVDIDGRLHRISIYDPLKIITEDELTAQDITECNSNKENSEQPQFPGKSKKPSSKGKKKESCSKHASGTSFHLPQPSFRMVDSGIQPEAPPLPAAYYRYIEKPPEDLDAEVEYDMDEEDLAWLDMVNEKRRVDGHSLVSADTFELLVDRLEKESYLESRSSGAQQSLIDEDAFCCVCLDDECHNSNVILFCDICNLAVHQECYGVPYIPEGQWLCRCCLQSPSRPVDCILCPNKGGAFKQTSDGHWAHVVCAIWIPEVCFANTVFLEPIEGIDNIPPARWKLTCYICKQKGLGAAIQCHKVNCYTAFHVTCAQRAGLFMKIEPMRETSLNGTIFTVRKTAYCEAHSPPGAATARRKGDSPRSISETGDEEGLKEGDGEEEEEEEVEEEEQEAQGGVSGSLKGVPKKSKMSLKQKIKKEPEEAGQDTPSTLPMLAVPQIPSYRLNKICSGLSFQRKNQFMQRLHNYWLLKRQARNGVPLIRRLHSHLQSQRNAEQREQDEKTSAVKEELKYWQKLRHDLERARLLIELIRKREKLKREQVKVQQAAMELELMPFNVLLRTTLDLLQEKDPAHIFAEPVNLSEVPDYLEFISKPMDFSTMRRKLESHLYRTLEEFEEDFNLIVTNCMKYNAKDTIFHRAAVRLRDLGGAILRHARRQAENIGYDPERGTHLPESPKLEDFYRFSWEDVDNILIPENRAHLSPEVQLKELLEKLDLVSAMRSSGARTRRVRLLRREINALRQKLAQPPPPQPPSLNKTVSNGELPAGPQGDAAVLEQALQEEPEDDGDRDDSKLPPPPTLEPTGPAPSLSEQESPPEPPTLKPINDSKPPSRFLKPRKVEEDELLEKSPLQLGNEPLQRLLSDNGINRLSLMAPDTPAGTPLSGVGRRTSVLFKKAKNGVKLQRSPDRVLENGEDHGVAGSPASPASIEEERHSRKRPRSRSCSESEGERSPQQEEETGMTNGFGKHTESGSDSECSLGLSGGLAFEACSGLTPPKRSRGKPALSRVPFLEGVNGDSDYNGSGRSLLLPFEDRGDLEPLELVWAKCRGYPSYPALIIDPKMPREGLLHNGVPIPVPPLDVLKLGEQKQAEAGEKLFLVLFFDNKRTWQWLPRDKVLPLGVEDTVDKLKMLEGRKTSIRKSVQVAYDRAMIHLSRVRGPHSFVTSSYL
Test: Binding affinity to BRPF3 (unknown origin) by isothermal titration calorimetry

Kd: 408 nM
Structure (SMILES): COc1cc(C#N)ccc1S(=O)(=O)Nc1ccc2c(c1)cc(C)c(=O)n2C

Reference: ChEMBL document CHEMBL3751772, “Fragments in bromodomain drug discovery” (Medchemcomm, 2015)
